# scFv variants of Ab-14 (light chain) against a SARS-CoV-2 spike peptide

Target peptide (SARS-CoV-2 spike, HR2 region): PDVDLGDISGINAS

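The parent was found by panning a naive human phage display library on the peptide. Variants in AAYL50 differ from the parent at up to three CDR positions; double and triple changes were sampled at random. Affinity was read by AlphaSeq, a pooled yeast mating assay with surface-displayed partners. Pairs that bind mate more often; barcode pairs of the diploids are counted by sequencing. Read counts were normalised to the haploid input and turned into Kd by a linear fit to BCL2-family pairs of known affinity, for each replicate. The assay was run in three technical replicates.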

Parent scFv Ab-14: VH joined to VL by a 15-residue (Gly4Ser)3 linker. Changes lie in the light chain CDRs alone.
VH: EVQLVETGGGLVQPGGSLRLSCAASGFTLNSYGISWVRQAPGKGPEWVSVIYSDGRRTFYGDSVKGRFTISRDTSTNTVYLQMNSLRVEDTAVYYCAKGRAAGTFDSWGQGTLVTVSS
VL: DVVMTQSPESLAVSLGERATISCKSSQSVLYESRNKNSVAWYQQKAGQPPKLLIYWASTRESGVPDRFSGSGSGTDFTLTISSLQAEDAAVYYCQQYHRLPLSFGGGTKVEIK

Changes read parent residue, position, new residue, counted from the first residue of the VL shown. Scale: log10 of Kd in nM, estimated from mating counts; low values are strong binders. The mean shown is taken over the replicates in which the pair was detected. Where no diploid with the target was found in that replicate, the entry reads "n.d.": below detection, most likely a poor binder, though not proof of it.

{"changes": "R34N/K36Y/R60D", "log10 Kd, replicates": "n.d. n.d. n.d.", "log10 Kd (nM), mean": "n.d.", "control signals": "1 of 9 (3.19)"}
{"changes": "N35T/A57C/H98R", "log10 Kd, replicates": "4.24 4.08 4.46", "log10 Kd (nM), mean": "4.26", "control signals": "1 of 9 (4.82)"}
{"changes": "Y97L", "log10 Kd, replicates": "n.d. n.d. 3.66", "log10 Kd (nM), mean": "3.66", "control signals": "1 of 9 (4.79)"}
{"changes": "L30Y/W56Y/R99K", "log10 Kd, replicates": "0.96 0.95 0.93", "log10 Kd (nM), mean": "0.95", "control signals": "2 of 9 (4.10)"}
{"changes": "Q27V/Q96Y/R99A", "log10 Kd, replicates": "3.11 2.61 2.88", "log10 Kd (nM), mean": "2.87", "control signals": "6 of 9 (4.56)"}
{"changes": "S28I/P101K", "log10 Kd, replicates": "2.76 2.30 3.44", "log10 Kd (nM), mean": "2.83", "control signals": "1 of 9 (4.45)"}
{"changes": "Y31I/L102H", "log10 Kd, replicates": "1.71 1.68 2.02", "log10 Kd (nM), mean": "1.81", "control signals": "2 of 9 (3.63)"}
{"changes": "S25W/Y31G/T59G", "log10 Kd, replicates": "2.95 2.33 3.08", "log10 Kd (nM), mean": "2.79", "control signals": "2 of 9 (4.05)"}
{"changes": "S25Y/R34L/T59D", "log10 Kd, replicates": "1.66 1.73 2.19", "log10 Kd (nM), mean": "1.86", "control signals": "1 of 9 (5.23)"}
{"changes": "S28P/S62G/R99K", "log10 Kd, replicates": "1.64 2.15 1.62", "log10 Kd (nM), mean": "1.80", "control signals": "0 of 9"}
{"changes": "V29R/E32S/A57R", "log10 Kd, replicates": "4.18 3.46 n.d.", "log10 Kd (nM), mean": "3.82", "control signals": "0 of 9"}
{"changes": "S26F/R60M", "log10 Kd, replicates": "n.d. 3.23 4.19", "log10 Kd (nM), mean": "3.71", "control signals": "1 of 9 (4.11)"}
{"changes": "A40G/S62G/P101I", "log10 Kd, replicates": "n.d. 3.51 n.d.", "log10 Kd (nM), mean": "3.51", "control signals": "2 of 9 (2.97)"}
{"changes": "S26C/A40V/L102W", "log10 Kd, replicates": "n.d. 3.39 n.d.", "log10 Kd (nM), mean": "3.39", "control signals": "0 of 9"}
{"changes": "V29I/S33D/R34V", "log10 Kd, replicates": "0.38 0.71 0.94", "log10 Kd (nM), mean": "0.67", "control signals": "3 of 9 (4.47)"}
{"changes": "K24S/R34T/L100S", "log10 Kd, replicates": "3.67 4.78 n.d.", "log10 Kd (nM), mean": "4.22", "control signals": "1 of 9 (4.65)"}
{"changes": "Q27I/Q95C/L102W", "log10 Kd, replicates": "n.d. n.d. n.d.", "log10 Kd (nM), mean": "n.d.", "control signals": "3 of 9 (4.51)"}
{"changes": "Y31V/E32S/L102D", "log10 Kd, replicates": "1.02 0.70 0.50", "log10 Kd (nM), mean": "0.74", "control signals": "1 of 9 (3.57)"}
{"changes": "S58L/H98P/L100Q", "log10 Kd, replicates": "n.d. 5.10 n.d.", "log10 Kd (nM), mean": "5.10", "control signals": "2 of 9 (4.59)"}
{"changes": "L30D/S38Y/P101M", "log10 Kd, replicates": "2.63 3.71 3.08", "log10 Kd (nM), mean": "3.14", "control signals": "0 of 9"}
{"changes": "R34K/N35A/S62F", "log10 Kd, replicates": "4.76 n.d. n.d.", "log10 Kd (nM), mean": "4.76", "control signals": "1 of 9 (4.88)"}
{"changes": "S25D/S26N/N37E", "log10 Kd, replicates": "1.95 1.70 2.03", "log10 Kd (nM), mean": "1.89", "control signals": "0 of 9"}
{"changes": "S28W/T59P/H98T", "log10 Kd, replicates": "3.48 n.d. n.d.", "log10 Kd (nM), mean": "3.48", "control signals": "1 of 9 (4.75)"}
{"changes": "L30D/Q96V/L102R", "log10 Kd, replicates": "0.92 1.07 1.07", "log10 Kd (nM), mean": "1.02", "control signals": "4 of 9 (4.55)"}
{"changes": "W56I/S103K", "log10 Kd, replicates": "n.d. n.d. n.d.", "log10 Kd (nM), mean": "n.d.", "control signals": "0 of 9"}
{"changes": "K24M/V39E/Y97G", "log10 Kd, replicates": "n.d. n.d. n.d.", "log10 Kd (nM), mean": "n.d.", "control signals": "0 of 9"}
{"changes": "A57M/R60L/Q96L", "log10 Kd, replicates": "n.d. n.d. n.d.", "log10 Kd (nM), mean": "n.d.", "control signals": "0 of 9"}

From the list, the first 4 with no signal in any replicate:

{"changes": "R34N/K36Y/R60D", "log10 Kd, replicates": "n.d. n.d. n.d.", "log10 Kd (nM), mean": "n.d.", "control signals": "1 of 9 (3.19)"}
{"changes": "Q27I/Q95C/L102W", "log10 Kd, replicates": "n.d. n.d. n.d.", "log10 Kd (nM), mean": "n.d.", "control signals": "3 of 9 (4.51)"}
{"changes": "W56I/S103K", "log10 Kd, replicates": "n.d. n.d. n.d.", "log10 Kd (nM), mean": "n.d.", "control signals": "0 of 9"}
{"changes": "K24M/V39E/Y97G", "log10 Kd, replicates": "n.d. n.d. n.d.", "log10 Kd (nM), mean": "n.d.", "control signals": "0 of 9"}

Empty control strains, which show no peptide, gave a signal in 18% of pairings with library AAYL50; the median was 4.19 and 95% of these signals were weaker than 2.99. No background was subtracted. For each scFv, signals with the empty controls are counted beside the result, with their mean in brackets. In this assay the parent's reference entry averaged 0.65; its copy inside this library read 1.68.

Reference: Engelhart et al. 2022, doi:10.1038/s41597-022-01779-4. File: FLAb, binding data.